From US20240376427A1, “COMPOSITIONS AND SYSTEMS COMPRISING THREE-DIMENSIONAL NERVE CELL CULTURES AND METHODS OF USING THE SAME” (THE ADMINISTRATORS OF THE TULANE EDUCATIONAL FUND, priority 2021, published 2024) come the findings set out here.

Each structure is given as a SMILES string.

In experiment [1] the test system is DRG-SCDH cocultures. Type of experiment: cell-based, rat.
Experiment [2] has as its system DRG-SCDH cocultures. As to conditions: for reversibility of analgesic effect by washout: 60-minute washout after 1 mM lidocaine / 10 uM clonidine / 500 uM morphine.
Experiment [3] deals with embryonic rat DRG-SCDH cocultures. Type of experiment: cell-based.
Where [4] appears, read: N1-matched traces, lowest effective dose vs sham, n=4.
Setting [5] is: amplitude-matched 40V analgesic trace vs pretreatment trace, lowest effective dose.
Where [6] appears, read: qualitative dose-response, increasing doses.
[7] abbreviates: unbiased analysis, stimulus intensity 0 to 40V, vs sham.

As for `N#Cc1cc2c(cc1[N+](=O)[O-])=NC(=O)C(=O)N=2.O.[Na].[Na]` [CNQX, 6-Cyano-7-nitroquinoxaline-2,3-dione disodium salt hydrate], in experiment [1], the “N1 (fiber volley) peak of synaptic waveform” value (from here on “N1 (fiber volley) peak”) is listed as “no effect”, the “N2 population spike amplitude” value is “significantly reduced” and the P1 wave amplitude result is listed as “significantly reduced”.

As to `O=C(O)CN(CCN(CC(=O)O)CC(=O)O)CC(=O)O` [EDTA, ethylenediaminetetraacetic acid], in experiment [1], the “N1 (fiber volley) peak” value was “no effect”, the “N2 population spike amplitude” value is on record as “completely blocked” and the P1 wave amplitude result is listed as “completely blocked”.

For `CN1CCc2cc3c(cc2[C@H]1[C@@H]1OC(=O)c2c1ccc1c2OCO1)OCO3` [bicuculline, (+)-bicuculline], in experiment [1], the “N1 (fiber volley) peak” value was “no effect” and the “N2 population spike amplitude” value is “no effect”.

As for `Clc1cccc(Cl)c1N=C1NCCN1` [clonidine], the “reversibility of analgesic effect by washout” value in experiment [2] was “Electrical activity is again detectable”. In addition, in experiment [2] (setting [4]), the N2 amplitude result is “trending decrease”, the P1 amplitude result is given as “preferentially decreased” and the “early phase of P1 (AUC)” value is given as “uniquely decreased”. In experiment [2] (setting [5]), the “N1 sensitivity: percent change in stimulus intensity required to evoke N1 peak of similar magnitude” value is on record as “no significant effect”, the “N2 sensitivity (change in required stimulus intensity)” value is listed as “primarily desensitized” and the “P1 sensitivity (change in required stimulus intensity)” value is recorded as “primarily desensitized”. Besides, in experiment [2] (setting [6]), the “dose at which electrical activity was completely inhibited” value was found to be 10 µM; the “dose at which increased latencies of N1 and N2 are first evident” value came out at 1 µM; the “dose at which reshaping of P1 is first evident” value stood at 1 µM. Further, in experiment [2] (setting [7]), the “early phase of P1” value is on record as “specifically decreased”; the “latency of N1 and N2” value is reported as “more sporadically increased”.

As for `CCN(CC)CC(=O)Nc1c(C)cccc1C` [lidocaine], the “reversibility of analgesic effect by washout” value in experiment [2] is listed as “Electrical activity is again detectable”. Also, in experiment [2] (setting [4]), the “additional effects on the shape of the synaptic waveform” value is on record as “no additional significant effects”. In experiment [2] (setting [5]), the “N1 sensitivity: percent change in stimulus intensity required to evoke N1 peak of similar magnitude” value was “approximately 60%”. In experiment [2] (setting [6]), the “dose at which electrical activity was completely inhibited” value is 1000 µM; the “dose at which increased latencies of N1 and N2 first become apparent” value was determined as 100 µM. Further, in experiment [2] (setting [7]), the “amplitude of N1 and N2” value is “decreased the amplitude”; the “latency of N1 and N2” value is given as “significantly increased”; the “latency, amplitude, or shape of P1” value is reported as “limited effects”.

Consider `CN1CC[C@]23c4c5ccc(O)c4O[C@H]2[C@@H](O)C=C[C@H]3[C@H]1C5.O=S(=O)(O)O` [morphine, Morphine sulfate], for which, in experiment [3], the “semi-spontaneous burst firing in SCDH spheroid” value is “increased in both amplitude and frequency”.

Regarding `NC1=N[C@H](O)[C@H]2[C@H]3O[C@]4(O)O[C@@H]([C@@H](O)[C@@]2(N1)[C@@H]4O)[C@]3(O)CO` [tetrodotoxin], the “N1 (fiber volley) peak” value in experiment [1] is recorded as “completely blocked”.
